Test results as given in US9714212B2, “Chemical compounds derived from normemantine and use of same in the medical field” (M2I DEVELOPMENT, priority 2013, dated 2017).

Assay: Toxicity after a single intravenous administration in mice
Assay type: in vivo, mice C57/Black 6J
Details: male mice, single 0.125 μg/kg intravenously
Protocol: The objective of this test is to assess, qualitatively and quantitatively, possible toxic phenomena and the delay before onset thereof after a single administration of a predetermined dose of 0.125 μg/kg of body weight (which would correspond to more than 10^4 times the dose administered to humans). The tests were carried out on 5 male mice and the results were compared with those of 3 control mice receiving only 0.2 ml of 0.9% NaCl solution. All the mice are the species C57/Black 6J provided by Charles River Laboratories (France) and about 8 weeks old. The average weight of the mice at the beginning of the tests is about 32 g after an acclimation period of 2 weeks. The animals are housed three per cage (31 cm×46 cm×19 cm) at a temperature of 25° C.±2° C.
The volume administered to each mouse is defined as […] and is administered once intravenously by means of a suitable syringe and needle.
The animals are observed regularly the day of administration (after 30 minutes, 1 hour, 2 hours, 3 hours and 4 hours), and then once each day for at least 14 days. All the observations were unremarkable.
As these doses are much higher than those envisaged for labeling NMDA receptors, this product will be well tolerated for this application.

For NC12CC3CC(C1)CC(CCF)(C3)C2 [^18F-fluoroethyl normemantine], the “autopsy findings after 14 days” value was “no pathological change” and the observations after administration (observed 30 minutes to 4 hours and daily for at least 14 days) was “unremarkable”.
